Data taken from article PMC6858497 (The Journal of physiology, 2019).

Sequences of proteins named here, by UniProt entry; tags and fusion partners are left off. Residues count along the entry.
UniProt Q00960, 27-1482: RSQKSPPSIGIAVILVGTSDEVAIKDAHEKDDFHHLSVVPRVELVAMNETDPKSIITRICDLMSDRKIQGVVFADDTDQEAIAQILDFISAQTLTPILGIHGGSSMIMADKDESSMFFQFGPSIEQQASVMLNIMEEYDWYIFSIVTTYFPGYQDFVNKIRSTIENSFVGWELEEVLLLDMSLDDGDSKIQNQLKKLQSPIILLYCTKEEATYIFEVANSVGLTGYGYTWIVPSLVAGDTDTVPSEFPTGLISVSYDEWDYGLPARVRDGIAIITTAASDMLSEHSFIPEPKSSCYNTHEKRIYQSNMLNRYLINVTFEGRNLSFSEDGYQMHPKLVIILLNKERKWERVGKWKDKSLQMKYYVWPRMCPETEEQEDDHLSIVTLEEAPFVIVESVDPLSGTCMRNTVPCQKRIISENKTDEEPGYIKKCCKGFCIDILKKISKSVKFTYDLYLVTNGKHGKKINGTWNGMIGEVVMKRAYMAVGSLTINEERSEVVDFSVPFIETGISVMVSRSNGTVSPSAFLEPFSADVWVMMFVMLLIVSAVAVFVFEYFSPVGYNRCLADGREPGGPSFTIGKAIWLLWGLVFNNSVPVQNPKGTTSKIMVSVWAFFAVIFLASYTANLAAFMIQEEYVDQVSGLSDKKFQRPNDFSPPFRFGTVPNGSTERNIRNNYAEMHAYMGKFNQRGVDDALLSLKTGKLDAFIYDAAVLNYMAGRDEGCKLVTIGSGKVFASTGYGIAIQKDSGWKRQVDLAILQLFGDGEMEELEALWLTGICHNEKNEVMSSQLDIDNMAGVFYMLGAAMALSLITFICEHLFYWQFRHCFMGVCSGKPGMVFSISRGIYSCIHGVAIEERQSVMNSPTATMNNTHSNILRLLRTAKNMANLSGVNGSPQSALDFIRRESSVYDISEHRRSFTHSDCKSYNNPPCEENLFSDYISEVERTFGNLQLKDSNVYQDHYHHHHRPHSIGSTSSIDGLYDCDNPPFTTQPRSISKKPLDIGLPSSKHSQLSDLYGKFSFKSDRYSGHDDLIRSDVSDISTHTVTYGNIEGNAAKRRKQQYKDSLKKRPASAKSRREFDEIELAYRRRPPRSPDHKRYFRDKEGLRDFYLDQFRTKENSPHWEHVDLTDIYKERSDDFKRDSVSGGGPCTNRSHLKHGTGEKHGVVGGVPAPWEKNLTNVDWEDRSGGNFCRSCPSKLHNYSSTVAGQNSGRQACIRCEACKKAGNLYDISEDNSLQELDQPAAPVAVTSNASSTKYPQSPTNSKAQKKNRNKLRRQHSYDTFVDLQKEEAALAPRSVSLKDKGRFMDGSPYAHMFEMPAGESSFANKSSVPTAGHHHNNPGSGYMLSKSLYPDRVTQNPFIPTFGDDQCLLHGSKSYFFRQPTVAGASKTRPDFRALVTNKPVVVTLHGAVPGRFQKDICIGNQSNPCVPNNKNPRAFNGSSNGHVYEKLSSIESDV
UniProt Q62645, 28-1323: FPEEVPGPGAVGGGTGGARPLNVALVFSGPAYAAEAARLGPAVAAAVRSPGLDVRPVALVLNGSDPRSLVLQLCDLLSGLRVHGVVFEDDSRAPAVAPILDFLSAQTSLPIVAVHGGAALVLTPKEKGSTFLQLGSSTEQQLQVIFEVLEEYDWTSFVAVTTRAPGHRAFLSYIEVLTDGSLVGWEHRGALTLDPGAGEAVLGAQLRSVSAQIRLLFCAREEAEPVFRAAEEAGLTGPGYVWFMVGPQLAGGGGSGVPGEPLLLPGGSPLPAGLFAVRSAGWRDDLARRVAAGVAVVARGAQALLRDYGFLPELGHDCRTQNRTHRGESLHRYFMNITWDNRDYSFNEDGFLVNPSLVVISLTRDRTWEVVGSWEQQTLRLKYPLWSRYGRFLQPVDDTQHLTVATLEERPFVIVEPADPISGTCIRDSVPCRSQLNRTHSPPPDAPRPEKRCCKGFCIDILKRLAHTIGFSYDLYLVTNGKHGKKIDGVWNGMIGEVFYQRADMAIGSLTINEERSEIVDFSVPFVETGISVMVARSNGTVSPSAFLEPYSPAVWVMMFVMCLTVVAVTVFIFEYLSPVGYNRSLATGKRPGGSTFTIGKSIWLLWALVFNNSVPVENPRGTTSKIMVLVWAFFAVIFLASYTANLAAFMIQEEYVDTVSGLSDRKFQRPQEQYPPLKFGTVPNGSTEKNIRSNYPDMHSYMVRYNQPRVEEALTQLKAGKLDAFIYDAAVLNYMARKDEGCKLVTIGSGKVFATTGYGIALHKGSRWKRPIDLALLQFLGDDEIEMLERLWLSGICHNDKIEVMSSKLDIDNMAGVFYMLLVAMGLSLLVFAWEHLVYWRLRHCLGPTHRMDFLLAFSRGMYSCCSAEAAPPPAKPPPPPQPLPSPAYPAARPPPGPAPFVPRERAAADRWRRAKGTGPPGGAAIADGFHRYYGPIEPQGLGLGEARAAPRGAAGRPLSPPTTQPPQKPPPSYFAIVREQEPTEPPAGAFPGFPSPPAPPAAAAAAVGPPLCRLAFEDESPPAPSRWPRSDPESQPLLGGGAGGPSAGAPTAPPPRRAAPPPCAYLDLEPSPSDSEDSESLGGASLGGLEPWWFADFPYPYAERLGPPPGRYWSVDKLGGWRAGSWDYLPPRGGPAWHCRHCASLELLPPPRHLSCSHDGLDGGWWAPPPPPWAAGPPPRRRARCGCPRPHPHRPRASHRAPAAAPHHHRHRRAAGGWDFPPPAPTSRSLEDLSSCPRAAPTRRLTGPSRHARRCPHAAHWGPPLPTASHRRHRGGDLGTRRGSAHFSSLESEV

How the values were obtained:
Assay in all cases: Two-electrode voltage-clamp recordings, Xenopus oocytes
Assay type in all cases: cell-based
Conditions in all cases: agonist concentration-response, isoform 1a
GluN1–1a/2B = GluN1–1a/2B (Rattus norvegicus, UniProt P35439+Q00960)
GluN1–1a/2BC1/2DC2 = GluN1–1a/2BC1/2DC2 (Rattus norvegicus, UniProt P35439+Q00959+Q00960+Q62645, A876H/F846L/G856D/H848F/K857R/M851T/M860L/Q845K/R869K/V861L/V866F)
GluN1–1a/2D = GluN1–1a/2D (Rattus norvegicus, UniProt P35439+Q62645)

SMILES: NCC(=O)O [glycine]
- nH (Hill coefficient) (GluN1–1a/2B): 1.8
- nH (Hill coefficient) (GluN1–1a/2BC1/2DC2): 1.6
- nH (Hill coefficient) (GluN1–1a/2D): 1.6
